Experiments:
trypsin = conditions: glucagon alone, 1 μg, 1 hour at 37° C., dot blot
[1] = combined with VSP carrier

With `CSCC[C@H](NC(=O)[C@H](CC(C)C)NC(=O)[C@H](Cc1c[nH]c2ccccc12)NC(=O)[C@H](CCC(N)=O)NC(=O)[C@@H](NC(=O)[C@H](Cc1ccccc1)NC(=O)[C@H](CC(=O)O)NC(=O)[C@H](CCC(N)=O)NC(=O)[C@H](C)NC(=O)[C@H](CCCN=C(N)N)NC(=O)[C@H](CCCN=C(N)N)NC(=O)[C@H](CO)NC(=O)[C@H](CC(=O)O)NC(=O)[C@H](CC(C)C)NC(=O)[C@H](Cc1ccc(O)cc1)NC(=O)[C@H](CCCCN)NC(=O)[C@H](CO)NC(=O)[C@H](Cc1ccc(O)cc1)NC(=O)[C@H](CC(=O)O)NC(=O)[C@H](CO)NC(=O)[C@@H](NC(=O)[C@H](Cc1ccccc1)NC(=O)[C@@H](NC(=O)CNC(=O)[C@H](CCC(N)=O)NC(=O)[C@H](CO)NC(=O)[C@@H](N)Cc1c[nH]cn1)[C@@H](C)O)[C@@H](C)O)C(C)C)C(=O)N[C@@H](CC(N)=O)C(=O)N[C@H](C(=O)O)[C@@H](C)O` [glucagon] the “effect of trypsin on glucagon” value (trypsin) was “proteolyzed” and the “resistance of glucagon to pH-induced degradation” value [1] was “increased the resistance”.

Reference: patent publication US9757471B2, “Protozoan variant-specific surface proteins (VSP) as carriers for oral drug delivery” (priority 2012, dated 2017)
